Reference: PubChem BioAssay AID2235 (The Scripps Research Institute Molecular Screening Center, 2010)
Only a part is listed here, and it is no random draw. Active and inactive are the calls of the source.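 Rule for the calls: active = inhibition above the mean inhibition of all tested compounds plus 3 SD, computed separately for each screening campaign (cut at about 15% in these data); inactive = the rest.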

Protein sequences, listed by entry. Tags and fused reporters are not part of them.
UniProt P62136, whole entry, looked up: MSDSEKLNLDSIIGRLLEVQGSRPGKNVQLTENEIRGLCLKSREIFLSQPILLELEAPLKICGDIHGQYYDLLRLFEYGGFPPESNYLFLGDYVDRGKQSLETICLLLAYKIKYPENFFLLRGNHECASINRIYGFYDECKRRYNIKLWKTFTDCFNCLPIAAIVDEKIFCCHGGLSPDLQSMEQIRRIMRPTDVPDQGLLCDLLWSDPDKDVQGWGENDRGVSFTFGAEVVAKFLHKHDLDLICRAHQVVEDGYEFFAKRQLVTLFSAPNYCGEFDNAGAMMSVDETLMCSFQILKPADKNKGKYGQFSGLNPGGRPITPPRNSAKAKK

The compounds below were run against Serine/threonine-protein phosphatase PP1-alpha catalytic subunit (Homo sapiens) (UniProt P62136) (assay: inhibition of human PP1 catalytic subunit – biochemical, fluorescence, OMFP substrate, single point, counter-screen for PP5 inhibitor project, primary screen (AID 2235)). Conditions: purified PP1alpha, at 6.7 µM, stronger effect = higher value.
For Nc1cc(N)c2nonc2c1[N+](=O)[O-], the inhibition was inactive: -7.12%.
CC(C)CC(=O)NC(Sc1ccc(Cl)cc1)C(Cl)(Cl)Cl (stereo unspecified) was tested, and the inhibition was inactive: -3.47%.
CN(C(=O)Cc1ccc(Cl)c(Cl)c1)[C@H]1CCCC[C@@H]1N1CCCC1 was tested, and the inhibition was inactive: 0.05%.
With Cc1ccc(NP(=O)(Oc2ccccc2F)Oc2ccccc2F)nc1 the inhibition was inactive: -0.34%.
Cc1cc(SC(NC(=O)c2ccc(F)cc2)C(Cl)(Cl)Cl)ncn1 (stereo unspecified) was tested, and the inhibition was inactive: 1.62%.
In the case of CCOP(=O)(Nc1ccccc1)OCC, the inhibition is reported as inactive: -3.22%.
O=P(Nc1nc2ccc(Cl)cc2s1)(c1ccccc1)c1ccccc1 was tested, and the inhibition was inactive: 1.99%.
CC(=O)Nc1ccc([As](=O)(O)O)cc1 was tested, and the inhibition was inactive: -0.37%.
O=C(O)c1ccccc1[As](=O)(O)O was tested, and the inhibition was inactive: 1.12%.
With CCN(N=Nc1nonc1N)c1nonc1N the inhibition was inactive: -0.03%.
In the case of O=[N+]([O-])c1cc([N+](=O)[O-])c(CCN2CCOCC2)c([N+](=O)[O-])c1, the inhibition is reported as inactive: 8.28%.
In the case of Cc1ccc(NP(=O)(Oc2cccc(C)c2)Oc2cccc(C)c2)nc1, the inhibition is reported as inactive: -2.58%.
In the case of CCOC(=O)NC(Sc1ccccc1)C(Cl)(Cl)Cl (stereo unspecified), the inhibition is reported as inactive: 1.44%.
c1ccc(-c2nn[nH]n2)c(-c2nn[nH]n2)c1 was tested, and the inhibition was inactive: 1.61%.
In the case of O=C(NC1CCS(=O)(=O)C1)NP(=S)(Oc1ccccc1)Oc1ccccc1 (stereo unspecified), the inhibition is reported as inactive: -1.59%.
In the case of CCNC(=S)/N=C(\N)N[N+](=O)[O-], the inhibition is reported as inactive: 0.19%.
In the case of CN(C)C(=O)Oc1noc2ccccc12, the inhibition is reported as inactive: -0.31%.
Cc1ccccc1OP(=O)(Nc1ccccn1)Oc1ccccc1C was tested, and the inhibition was inactive: 2.31%.
CCC(=O)N1C2C3N(C(=O)CC)C1C1N(C(=O)CC)C(C(N1C(=O)CC)N3C(=O)CC)N2C(=O)CC was tested, and the inhibition was inactive: 1.12%.
With O=C(OC1CN2CCC1CC2)c1ccccc1 (stereo unspecified) the inhibition was inactive: -2.56%.
For CC(=O)NC(SC(=S)N(CC(C)C)CC(C)C)C(Cl)(Cl)Cl (stereo unspecified), the inhibition was inactive: 0.02%.
Cc1ccc(OP(=O)(Nc2ccccn2)Oc2ccc(C)cc2)cc1 was tested, and the inhibition was inactive: 0.4%.
COC(=O)c1cc2c(s1)N=C(c1ccccc1)N(C)P2(=O)N1CCOCC1 (stereo unspecified) was tested, and the inhibition was inactive: -0.85%.
In the case of CC(C)(C)C(=O)NC(Sc1ccccc1)C(Cl)(Cl)Cl (stereo unspecified), the inhibition is reported as inactive: 9.61%.
CCOc1ccc(C2=NCC(CBr)S2)cc1 (stereo unspecified) was tested, and the inhibition was inactive: 0.76%.
O=P1(Nc2nc3ccc(Cl)cc3s2)COc2ccccc2O1 (stereo unspecified) was tested, and the inhibition was inactive: -2.38%.
CC(=O)Nc1ccc(Oc2c([N+](=O)[O-])cc([N+](=O)[O-])cc2[N+](=O)[O-])cc1 was tested, and the inhibition was inactive: 0.02%.
For CC(=O)Nc1ccc([As](=O)(O)O)c(O)c1, the inhibition was inactive: -0.06%.
For C[C@H]1OP(=O)(Oc2ccccc2)C[C@@H]2O[C@@H]21 (stereo partly specified), the inhibition was inactive: -2.67%.
In the case of C[C@@H]1C=CCP(=O)(Oc2ccccc2)O1 (stereo partly specified), the inhibition is reported as inactive: -0.78%.
For Cc1ccccc1CN(C)C(=O)COC(=O)C(O)(c1ccccc1)c1ccccc1, the inhibition was inactive: -3.97%.
With CC(=O)c1ccc(N2CC2c2ccncc2)cc1 (stereo unspecified) the inhibition was inactive: 0.17%.
With c1nnnn1CCn1cnnn1 the inhibition was inactive: -14.7%.
For O=P(Nc1nccs1)(c1ccccc1)c1ccccc1, the inhibition was inactive: -2.38%.
CC(C)C(=O)NC(Sc1ccccc1)C(Cl)(Cl)Cl (stereo unspecified) was tested, and the inhibition was inactive: -3.04%.
For C[C@H]1OP(=O)(Oc2ccccc2)[C@H](O)[C@H](O)[C@H]1N=[N+]=[N-] (stereo partly specified), the inhibition was inactive: 0.39%.
In the case of O=P(Nc1nc2ccccc2s1)(c1ccccc1)c1ccccc1, the inhibition is reported as inactive: -0.16%.
In the case of CN(C)C1(CNC(=O)c2ccc(Cl)c(S(N)(=O)=O)c2)CCCCC1, the inhibition is reported as inactive: -2.2%.
With O=P(Nc1ccccn1)(c1ccc(Br)cc1)c1ccc(Br)cc1 the inhibition was inactive: 0.4%.
With O=C(OC1CN2CCC1CC2)c1cccc(Cl)c1 (stereo unspecified) the inhibition was inactive: -2.65%.
With C(Cc1nn[nH]n1)Cc1nn[nH]n1 the inhibition was inactive: -2.97%.
Nc1ccc([As](=O)(O)c2ccc([N+](=O)[O-])cc2)cc1 was tested, and the inhibition was inactive: 0.02%.
With O=[As](O)(c1ccccc1)c1ccc(O)cc1 the inhibition was inactive: -0.72%.
CC(=O)NC(SC(=S)N(C)C)C(Cl)(Cl)Cl (stereo unspecified) was tested, and the inhibition was inactive: -5.98%.
In the case of O=[N+]([O-])c1ncn(CCn2cnc([N+](=O)[O-])n2)n1, the inhibition is reported as inactive: 2.1%.
For O=[N+]([O-])c1ccc(O)c(/C=N/Nc2ccc([N+](=O)[O-])cc2[N+](=O)[O-])c1, the inhibition was inactive: -1.19%.
